Experimental findings from ChEMBL document CHEMBL1157033, “Developing a complete pharmacology for AMPA receptors: a perspective on subtype-selective ligands” (Bioorg Med Chem, 2010) are described below.

Chains of the proteins cited; added tags and fusions are not shown. Lines headed by an entry give the natural chain unless they say otherwise; changes in a name come on top.
UniProt P19492: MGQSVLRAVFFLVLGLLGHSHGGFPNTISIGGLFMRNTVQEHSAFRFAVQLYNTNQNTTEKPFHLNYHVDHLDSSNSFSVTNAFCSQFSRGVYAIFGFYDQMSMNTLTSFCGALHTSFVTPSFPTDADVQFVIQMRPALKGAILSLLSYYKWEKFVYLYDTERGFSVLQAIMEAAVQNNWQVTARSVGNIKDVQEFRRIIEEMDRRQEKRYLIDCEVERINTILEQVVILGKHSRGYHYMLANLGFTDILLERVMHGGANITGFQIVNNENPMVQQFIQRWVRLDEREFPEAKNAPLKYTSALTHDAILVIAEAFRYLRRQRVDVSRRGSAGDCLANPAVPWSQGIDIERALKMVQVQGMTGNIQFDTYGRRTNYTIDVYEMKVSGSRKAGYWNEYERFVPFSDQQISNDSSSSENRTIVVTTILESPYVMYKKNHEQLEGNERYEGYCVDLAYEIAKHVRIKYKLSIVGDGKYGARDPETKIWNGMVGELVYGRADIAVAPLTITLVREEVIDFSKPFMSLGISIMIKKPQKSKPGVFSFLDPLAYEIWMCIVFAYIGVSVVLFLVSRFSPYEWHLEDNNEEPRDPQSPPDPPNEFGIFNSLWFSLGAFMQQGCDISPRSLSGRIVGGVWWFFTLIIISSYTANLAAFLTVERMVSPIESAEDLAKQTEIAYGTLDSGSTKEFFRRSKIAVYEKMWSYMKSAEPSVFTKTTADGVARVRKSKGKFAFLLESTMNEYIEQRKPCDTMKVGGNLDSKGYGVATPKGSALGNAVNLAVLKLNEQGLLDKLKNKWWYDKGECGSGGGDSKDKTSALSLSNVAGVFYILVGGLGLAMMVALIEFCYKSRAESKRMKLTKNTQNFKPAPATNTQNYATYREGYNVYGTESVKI
UniProt P19493: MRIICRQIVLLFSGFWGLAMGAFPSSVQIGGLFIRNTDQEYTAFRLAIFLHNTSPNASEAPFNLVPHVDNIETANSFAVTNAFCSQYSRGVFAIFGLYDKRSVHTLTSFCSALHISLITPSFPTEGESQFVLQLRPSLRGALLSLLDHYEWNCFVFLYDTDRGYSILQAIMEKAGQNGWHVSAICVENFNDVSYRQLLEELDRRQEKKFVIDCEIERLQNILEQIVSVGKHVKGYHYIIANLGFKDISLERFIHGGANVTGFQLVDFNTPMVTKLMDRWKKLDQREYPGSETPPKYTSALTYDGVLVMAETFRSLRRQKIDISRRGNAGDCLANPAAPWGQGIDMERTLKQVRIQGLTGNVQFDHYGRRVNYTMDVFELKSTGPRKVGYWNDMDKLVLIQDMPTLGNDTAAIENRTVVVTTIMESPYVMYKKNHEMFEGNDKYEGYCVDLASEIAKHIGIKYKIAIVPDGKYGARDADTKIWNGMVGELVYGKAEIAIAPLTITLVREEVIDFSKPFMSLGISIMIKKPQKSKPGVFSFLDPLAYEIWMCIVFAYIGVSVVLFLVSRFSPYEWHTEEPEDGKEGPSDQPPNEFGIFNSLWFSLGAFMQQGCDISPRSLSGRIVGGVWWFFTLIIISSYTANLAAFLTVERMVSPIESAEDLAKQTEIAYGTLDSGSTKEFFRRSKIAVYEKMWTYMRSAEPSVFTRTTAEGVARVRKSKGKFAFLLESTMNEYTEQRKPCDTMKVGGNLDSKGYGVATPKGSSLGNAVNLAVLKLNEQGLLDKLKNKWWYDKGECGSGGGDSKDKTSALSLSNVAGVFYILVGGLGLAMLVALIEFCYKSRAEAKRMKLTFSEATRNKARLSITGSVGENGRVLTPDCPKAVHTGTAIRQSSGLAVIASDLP

One test has as its target Glutamate receptor 3 (Rattus norvegicus, UniProt P19492). Briefly: Agonist activity at rat recombinant GluA3 receptor flip isoform expressed in HEK293 cells assessed as effect on cyclothiazide-induced calcium flux by Fluo-4/AM staining-based fluorescence assay. In kind it is functional, cell-based. Background: Calcium flux is commonly read through the fluorescence of an indicator in the cells.

The next test addresses Glutamate receptor 4 (Rattus norvegicus, UniProt P19493). Briefly: Agonist activity at rat recombinant GluA4 receptor flip isoform expressed in HEK293 cells assessed as effect on cyclothiazide-induced calcium flux by Fluo-4/AM staining-based fluorescence assay. The test is classed as functional, cell-based.

A word on the EC50: it is the concentration giving half of the maximal effect.

As to `Cc1onc(O)c1CC(N)C(=O)O` (racemic) [(R,S)-AMPA], the EC50 on Glutamate receptor 3 was 37 µM; at Glutamate receptor 4, 16 µM.
